Results taken from patent US20260382731A1, “BCL-2/BCL-XL PROTEIN DEGRADER AND USE THEREOF” (published 2026).

Protein sequences, listed by entry. Tags and fused reporters are not part of them.
UniProt Q07817, whole entry: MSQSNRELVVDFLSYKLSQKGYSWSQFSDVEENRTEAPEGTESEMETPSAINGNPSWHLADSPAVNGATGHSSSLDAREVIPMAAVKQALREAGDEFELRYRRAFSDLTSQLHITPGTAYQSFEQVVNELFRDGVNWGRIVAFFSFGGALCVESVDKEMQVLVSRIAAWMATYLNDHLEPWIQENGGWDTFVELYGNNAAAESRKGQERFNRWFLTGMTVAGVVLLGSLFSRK

Assays:
[1] = tested on: NCI-H146 cells; test: Cell viability assay, NCI-H146 (CellTiter-Glo, 72 h); conditions: read-out: NCI-H146 Cell viability IC50
Procedure: Human T-ALL cell MOLT-4 or SCLC NCI-H146 was cultured using standard cell culture conditions in RPMI-1640 supplemented with 10% FBS in humidified incubator at 37 °C, 5% CO2. To assess the effect of BCL-XL PROTAC degraders on cell viability, exponentially growing cells were seeded at a density of 10,000 cells/well in 96-well plates. After cell seeding, serially-diluted compound or DMSO was added to the cells (in concentration ranging from 0 to 10 uM, 3* dilution series), and plates were incubated for 72 hours. Cell viability was measured using a CellTiter-Glo Luminescent Cell Viability Assay kit (Promega) according to the manufacturer's protocol. The luminescence signal of treated cells was normalized to DMSO control. The dose response curves and IC50 values were generated using Prism.

[2] = tested on: MOLT-4 cells; test: Cell viability assay, MOLT-4 (CellTiter-Glo, 72 h); conditions: read-out: MOLT4 Cell viability IC50
[3] = target: BCL-XL (Homo sapiens, UniProt Q07817); test: Immunoblotting: BCL-XL protein degradation
[4] = tested on: human platelets; test: Platelet viability test (CellTiter-Glo, 72 h); conditions: read-out: Human platelet IC50
[5] = read-out: MDA-MB-231 degradation DC50, MDA-MB-231 cells

## CCn1c(C)c(S(C)(=O)=O)c(-c2cc(F)cc(N3CCN(c4ccc(NS(=O)(=O)c5ccc(N[C@H](CCN6CCN(C7CCN(CCOc8cc([C@H](C(=O)N9C[C@H](O)C[C@H]9C(=O)N[C@@H](CO)c9ccc(-c%10scnc%10C)cc9)C(C)C)on8)CC7)CC6)CSc6ccccc6)c(S(=O)(=O)C(F)(F)F)c5)nc4)CC3)c2)c1-c1ccc(F)cc1
[1]
  IC50: 32 nM
[2]
  IC50: 6 nM

## CCn1c(C)c(S(C)(=O)=O)c(-c2cc(F)cc(N3CCN(c4cnc(NS(=O)(=O)c5ccc(N[C@H](CCN6CCN(C7CCN(CCOc8cc([C@H](C(=O)N9C[C@H](O)C[C@H]9C(=O)N[C@@H](CO)c9ccc(-c%10scnc%10C)cc9)C(C)C)on8)CC7)CC6)CSc6ccccc6)c(S(=O)(=O)C(F)(F)F)c5)cn4)CC3)c2)c1-c1ccc(F)cc1
[1]
  IC50: 12 nM
[2]
  IC50: 3 nM

## CCn1c(C)c(S(C)(=O)=O)c(-c2cc(F)cc(N3CCN(c4ncc(NS(=O)(=O)c5ccc(N[C@H](CCN6CCN(C7CC(Oc8cc([C@H](C(=O)N9C[C@H](O)C[C@H]9C(=O)N[C@@H](CO)c9ccc(-c%10scnc%10C)cc9)C(C)C)on8)C7)CC6)CSc6ccccc6)c(S(=O)(=O)C(F)(F)F)c5)cn4)CC3)c2)c1-c1ccc(F)cc1 (single isomer, unassigned) [370]
[1]
  IC50: 17 nM
[2]
  IC50: 4 nM

## CCn1c(C)c(S(C)(=O)=O)c(-c2cc(F)cc(N3CCN(c4ccc(NS(=O)(=O)c5ccc(N[C@H](CCN6CCN(C7CCN(CCOc8cc([C@H](C(=O)N9C[C@H](O)C[C@H]9C(=O)N[C@@H](CO)c9ccc(-c%10scnc%10C)cc9)C(C)C)on8)CC7)CC6)CSc6ccccc6)c(S(=O)(=O)C(F)(F)F)c5)cn4)CC3)c2)c1-c1ccc(F)cc1
[1]
  IC50: 41 nM
[2]
  IC50: 7 nM

## CCn1c(C)c(S(C)(=O)=O)c(-c2cc(F)cc(N3CCN(c4ncc(NS(=O)(=O)c5ccc(N[C@H](CCN6CCN(CCCOc7cn([C@H](C(=O)N8C[C@H](O)C[C@H]8C(=O)N[C@@H](CO)c8ccc(-c9scnc9C)cc8)C(C)(C)C)nn7)CC6)CSc6ccccc6)c(S(=O)(=O)C(F)(F)F)c5)cn4)CC3)c2)c1-c1ccc(F)cc1
[1]
  IC50: 15 nM
[2]
  IC50: 4 nM

## CCn1c(C)c(S(C)(=O)=O)c(-c2cc(F)cc(N3CCN(c4ccc(NS(=O)(=O)c5ccc(N[C@H](CCN6CCN(C7CCN(CCOc8cc([C@@H](C(=O)N9C[C@H](O)C[C@H]9C(=O)N[C@@H](CO)c9ccc(-c%10scnc%10C)cc9)C(C)C)on8)CC7)CC6)CSc6ccccc6)c(S(=O)(=O)C(F)(F)F)c5)nc4)CC3)c2)c1-c1ccc(F)cc1
[1]
  IC50: 850 nM
[2]
  IC50: 393 nM

## CCn1c(C)c(S(C)(=O)=O)c(-c2cc(F)cc(N3CCN(c4ncc(NS(=O)(=O)c5ccc(N[C@H](CCN6CCN(C7CC(Oc8cc([C@@H](C(=O)N9C[C@H](O)C[C@H]9C(=O)N[C@@H](CO)c9ccc(-c%10scnc%10C)cc9)C(C)C)on8)C7)CC6)CSc6ccccc6)c(S(=O)(=O)C(F)(F)F)c5)cn4)CC3)c2)c1-c1ccc(F)cc1 (single isomer, unassigned) [369]
[1]
  IC50: 377 nM
[2]
  IC50: 221 nM

## CCn1c(C)c(S(C)(=O)=O)c(-c2cc(F)cc(N3CCN(c4ncc(NS(=O)(=O)c5ccc(N[C@H](CCN6CCN(C7CC(Oc8cc([C@@H](C(=O)N9C[C@H](O)C[C@H]9C(=O)N[C@@H](CO)c9ccc(-c%10scnc%10C)cc9)C(C)C)on8)C7)CC6)CSc6ccccc6)c(S(=O)(=O)C(F)(F)F)c5)cn4)CC3)c2)c1-c1ccc(F)cc1 (single isomer, unassigned) [371]
[1]
  IC50: 669 nM
[2]
  IC50: 306 nM

## CCn1c(C)c(S(C)(=O)=O)c(-c2cc(F)cc(N3CCN(c4ncc(NS(=O)(=O)c5ccc(N[C@H](CCN6CCN(C7CC(Oc8cc([C@H](C(=O)N9C[C@H](O)C[C@H]9C(=O)N[C@@H](CO)c9ccc(-c%10scnc%10C)cc9)C(C)C)on8)C7)CC6)CSc6ccccc6)c(S(=O)(=O)C(F)(F)F)c5)cn4)CC3)c2)c1-c1ccc(F)cc1 (single isomer, unassigned) [372]
[1]
  IC50: 10 nM
[2]
  IC50: 2 nM

## CCn1c(C)c(S(C)(=O)=O)c(-c2cc(F)cc(N3CCN(c4ncc(NS(=O)(=O)c5ccc(N[C@H](CCN6CCN(CCCc7cc([C@H](C(=O)N8C[C@H](O)C[C@H]8C(=O)N[C@@H](CO)c8ccc(-c9scnc9C)cc8)C(C)C)on7)CC6)CSc6ccccc6)c(S(=O)(=O)C(F)(F)F)c5)cn4)CC3)c2)c1-c1ccc(F)cc1
[1]
  IC50: 14 nM
[2]
  IC50: 4 nM

## CCn1c(C)c(S(C)(=O)=O)c(-c2cc(F)cc(N3CCN([C@H]4CC[C@H](NS(=O)(=O)c5ccc(N[C@H](CCN6CCN(C7CCN(CCOc8cc([C@H](C(=O)N9C[C@H](O)C[C@H]9C(=O)N[C@@H](CO)c9ccc(-c%10scnc%10C)cc9)C(C)C)on8)CC7)CC6)CSc6ccccc6)c(S(=O)(=O)C(F)(F)F)c5)CC4)CC3)c2)c1-c1ccc(F)cc1
[1]
  IC50: 144 nM
[2]
  IC50: 10 nM

## CCn1c(C)c(C(=O)NCCC2CCOCC2)c(-c2cc(F)cc(N3CCN(c4ccc(NS(=O)(=O)c5ccc(N[C@H](CCN6CCN(CCCCCCC(=O)N[C@H](C(=O)N7C[C@H](O)C[C@H]7C(=O)N[C@@H](C)c7ccc(-c8scnc8C)cc7)C(C)(C)C)CC6)CSc6ccccc6)c(S(=O)(=O)C(F)(F)F)c5)cc4)CC3)c2)c1-c1ccc(F)cc1
[3]; [5]
  DC50: 4 nM
[4]
  IC50: 563 nM
[2]
  IC50: 17 nM

## Cc1ncsc1-c1ccc([C@H](C)NC(=O)[C@@H]2C[C@@H](O)CN2C(=O)[C@@H](NC(=O)CCCCCC(=O)N2CCN(CC[C@H](CSc3ccccc3)Nc3ccc(S(=O)(=O)NC(=O)c4ccc(N5CCN(CC6=C(c7ccc(Cl)cc7)CCC(C)(C)C6)CC5)cc4)cc3S(=O)(=O)C(F)(F)F)CC2)C(C)(C)C)cc1
[1]
  IC50: 140 nM
[3]; [5]
  DC50: 11 nM
[3]; read-out: MOLT4 Degradation DC50, MOLT4 cells
  DC50: 20 nM
[4]
  IC50: 8350 nM
[2]
  IC50: 44 nM

Where two headings read alike, the source gives them in different places.
